Values quoted from earlier work, collected in US7629368B2, “Nitroderivatives as drugs for diseases having an inflammatory basis” (Nicox S.A., priority 2000, dated 2009).

Experiments:
chronic hepatitis C = conditions: patients; cited from earlier work
chronic hepatitis B = conditions: cited from earlier work

## interferon α-2b: compound used for the treatment of chronic hepatitis B and C
Chronic hepatitis C
  recovery of the cases affected by chronic hepatitis C: 20-25%
Chronic hepatitis B; patients with chronic hepatitis B or C, interruption of the treatment
  recidivism after interruption of the treatment: 50-80%
Chronic hepatitis B; patients
  cases of hepatitis B that are satisfactory: 10%
  recovery of the cases affected by chronic hepatitis B: 30-40%
